Chains of the proteins cited; added tags and fusions are not shown.
UniProt P21917, whole entry: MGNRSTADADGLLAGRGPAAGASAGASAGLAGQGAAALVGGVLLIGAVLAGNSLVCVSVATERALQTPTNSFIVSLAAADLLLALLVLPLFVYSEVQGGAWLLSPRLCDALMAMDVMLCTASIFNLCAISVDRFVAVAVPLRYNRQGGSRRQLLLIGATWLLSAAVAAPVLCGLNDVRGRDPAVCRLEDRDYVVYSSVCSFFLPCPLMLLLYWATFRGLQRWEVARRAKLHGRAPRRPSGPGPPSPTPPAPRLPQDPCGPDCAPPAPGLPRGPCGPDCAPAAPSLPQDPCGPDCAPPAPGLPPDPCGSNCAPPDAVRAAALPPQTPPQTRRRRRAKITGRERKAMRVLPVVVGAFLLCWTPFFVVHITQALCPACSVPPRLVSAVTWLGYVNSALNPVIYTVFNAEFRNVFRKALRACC

According to ChEMBL document CHEMBL1141881, “Modeling the similarity and divergence of dopamine D2-like receptors and identification of validated ligand-receptor complexes” (J Med Chem, 2005):

Target: D(4) dopamine receptor (Homo sapiens, UniProt P21917)

CCN1CCC[C@H]1CNC(=O)c1cc(S(N)(=O)=O)ccc1OC [SULPIRIDE]
Ki: 2100 nM
